Measured affinities in a library of Ab-14 light chain variants

The target is the same throughout: PDVDLGDISGINAS, from the HR2 region of SARS-CoV-2 spike.

Parent: Ab-14, a human scFv built as VH, a 15-residue (Gly4Ser)3 linker, VL. Only the CDRs of the light chain vary.
VH: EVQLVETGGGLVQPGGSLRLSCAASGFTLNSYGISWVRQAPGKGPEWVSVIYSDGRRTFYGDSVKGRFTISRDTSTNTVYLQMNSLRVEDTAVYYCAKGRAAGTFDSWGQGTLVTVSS
VL: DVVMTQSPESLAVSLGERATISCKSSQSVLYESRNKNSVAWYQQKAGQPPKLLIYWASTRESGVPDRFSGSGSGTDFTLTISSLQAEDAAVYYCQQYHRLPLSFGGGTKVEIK

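The starting antibody came from a phage panning campaign against this peptide. The variants were designed computationally from a first round of random CDR variants and then made and measured. Their group label is 14L_En_HC (En: ensemble of fine-tuned language models; HC: hill climbing; a sequence that several methods proposed may carry one label only). AlphaSeq pools MATa yeast showing the antibodies with MATalpha yeast showing the peptide. Binding brings cells together so that they mate, and sequencing counts the barcode pairs among the diploids. The ratio of observed to expected reads was calibrated, replicate by replicate, on BCL2-family standards whose Kd was known from biolayer interferometry. Each pool was mated in six replicate cultures.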

Each variant's VL is given in full. Values are log10 of the apparent Kd in nM; lower means stronger binding. Where no diploid with the target was found in that replicate, the entry reads "nd": below detection, most likely a poor binder, though not proof of it. The authors' rule: three or more of the six replicates give a measured affinity, fewer mean a poor binder.

VL | replicates, log10 nM | control signals
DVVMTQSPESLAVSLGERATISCKFGQMVLTGAYVSNSVAWYQQKAGQPPKLLIYQMSTRVNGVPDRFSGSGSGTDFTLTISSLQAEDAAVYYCQQYHRLPLSFGGGTKVEIK | 0.69 0.37 0.42 0.38 0.59 0.66 | 4 of 18 (2.25)
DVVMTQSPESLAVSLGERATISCKISMMSSIESIMHNSVAWYQQKAGQPPKLLIYQTSNRENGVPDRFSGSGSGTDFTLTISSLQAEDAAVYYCQQYDRLPLSFGGGTKVEIK | 0.86 0.97 0.32 0.09 0.22 1.13 | 0 of 18
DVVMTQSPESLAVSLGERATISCTISQSWVIESRNKNNVAWYQQKAGQPPKLLIYEMSTRENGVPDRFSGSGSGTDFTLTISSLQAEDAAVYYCQDYDRLPLSFGGGTKVEIK | 0.57 0.94 0.66 0.52 0.52 0.64 | 0 of 18
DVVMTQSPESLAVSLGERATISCTISQMFLGESRNRNSVAWYQQKAGQPPKLLIYQASTREPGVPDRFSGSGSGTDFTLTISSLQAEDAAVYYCQSYDRLPLSFGGGTKVEIK | 0.96 0.53 0.73 0.51 0.53 0.81 | 0 of 18
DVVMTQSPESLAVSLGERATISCSLYESMGYLSHNKNSIAWYQQKAGQPPKLLIYDMSRRENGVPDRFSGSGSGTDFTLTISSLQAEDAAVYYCQQYHRLPLSFGGGTKVEIK | 0.18 0.21 -0.18 -0.19 -0.18 -0.02 | 1 of 18 (2.38)
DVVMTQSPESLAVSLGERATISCKLTQVTGYESYVRNSVAWYQQKAGQPPKLLIYQMSTRAEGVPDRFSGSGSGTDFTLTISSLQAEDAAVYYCQDYNRLPLSFGGGTKVEIK | 0.85 0.40 0.62 0.32 0.45 0.80 | 3 of 18 (2.38)
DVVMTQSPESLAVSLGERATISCKLSQSVRMESFVKDNVAWYQQKAGQPPKLLIYENSTREAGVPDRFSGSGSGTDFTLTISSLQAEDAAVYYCQDYHRLPLSFGGGTKVEIK | nd nd nd 1.53 1.66 1.97 | 0 of 18
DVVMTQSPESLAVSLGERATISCMISDLTMYGSRSVNSVAWYQQKAGQPPKLLIYDLSTRGSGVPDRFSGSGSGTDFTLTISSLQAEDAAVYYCQQYDRLPLSFGGGTKVEIK | 1.00 0.81 0.43 0.30 0.49 0.46 | 2 of 18 (1.82)
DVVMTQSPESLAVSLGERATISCMFSQGVMVGWLTRNSVAWYQQKAGQPPKLLIYNSSTREKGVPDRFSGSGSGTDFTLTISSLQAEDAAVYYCQQYDRLPLSFGGGTKVEIK | -0.08 -0.30 -0.34 -0.43 -0.34 -0.19 | 0 of 18
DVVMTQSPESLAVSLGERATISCKLSQVTEYEMHNKDNVAWYQQKAGQPPKLLIYDLTTRGAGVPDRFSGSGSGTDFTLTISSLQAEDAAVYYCQDYHRLPLSFGGGTKVEIK | 0.72 0.86 0.36 -0.45 -0.43 1.27 | 0 of 18
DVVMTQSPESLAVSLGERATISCMFSQLFMYGSRNYNSVAWYQQKAGQPPKLLIYQAETRESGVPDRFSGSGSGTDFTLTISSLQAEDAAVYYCQQYHRLPLIFGGGTKVEIK | 1.60 1.86 nd 1.19 1.72 1.41 | 1 of 18 (1.82)
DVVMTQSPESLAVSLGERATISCKIGGVTNGTSRNKNSVAWYQQKAGQPPKLLIYEQSTRESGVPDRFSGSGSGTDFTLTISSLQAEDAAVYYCQQYNRLPLSFGGGTKVEIK | 0.94 1.42 1.15 1.00 0.93 1.32 | 1 of 18 (2.38)
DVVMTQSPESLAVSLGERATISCKITGMWTFESHNRNNIAWYQQKAGQPPKLLIYEESTREDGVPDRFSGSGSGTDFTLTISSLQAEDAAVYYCQSYHRLPLSFGGGTKVEIK | 0.80 0.37 0.40 0.78 0.64 0.64 | 1 of 18 (2.50)
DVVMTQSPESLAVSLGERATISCKISMLYNFASTNKNSIAWYQQKAGQPPKLLIYEMTTREAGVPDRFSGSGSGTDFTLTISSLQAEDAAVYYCQHYHRLPLSFGGGTKVEIK | 0.78 1.56 0.69 0.94 1.17 1.33 | 0 of 18
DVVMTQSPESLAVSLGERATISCILYDSVGTLSRNRNSVAWYQQKAGQPPKLLIYDNSTRESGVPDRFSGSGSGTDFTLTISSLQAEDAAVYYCQQYDRLPLSFGGGTKVEIK | 2.88 1.54 2.44 2.41 1.77 2.18 | 0 of 18
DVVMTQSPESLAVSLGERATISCTISQMLLMQTSHKNSVAWYQQKAGQPPKLLIYGEETRYEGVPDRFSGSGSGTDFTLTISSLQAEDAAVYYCQQYHRLPLSFGGGTKVEIK | 0.55 0.25 0.42 0.04 0.13 0.33 | 0 of 18
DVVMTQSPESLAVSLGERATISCMISDLTMYGSRGKNSVAWYQQKAGQPPKLLIYDLSTRGSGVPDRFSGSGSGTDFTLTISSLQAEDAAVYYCQQYHRLPLSFGGGTKVEIK | 0.52 0.84 0.68 0.65 0.65 0.31 | 2 of 18 (3.58)
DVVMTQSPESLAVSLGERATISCTISQMLLMQTSHKNSVAWYQQKAGQPPKLLIYGEETRYAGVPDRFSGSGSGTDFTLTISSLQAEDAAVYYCQQYHRLPLSFGGGTKVEIK | 0.42 0.59 0.39 0.47 0.36 0.68 | 0 of 18
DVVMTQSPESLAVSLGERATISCKLSQSVMFMSGVYNSVAWYQQKAGQPPKLLIYQMSTRAEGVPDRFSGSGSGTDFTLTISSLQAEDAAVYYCQCYNRLPLSFGGGTKVEIK | 1.45 1.18 1.18 0.87 1.41 1.73 | 0 of 18
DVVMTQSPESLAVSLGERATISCKLLQEVTGHSRNRHSVAWYQQKAGQPPKLLIYHNSTREDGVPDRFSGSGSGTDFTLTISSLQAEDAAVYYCQQYDRLPLSFGGGTKVEIK | 1.82 3.88 2.71 1.43 1.89 3.68 | 1 of 18 (2.57)
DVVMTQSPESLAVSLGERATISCKIAQSMNLTSHHINSVAWYQQKAGQPPKLLIYQSTTREEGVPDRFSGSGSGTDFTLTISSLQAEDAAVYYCQQYNHLPLSFGGGTKVEIK | 2.01 1.16 1.66 1.59 2.26 1.78 | 0 of 18
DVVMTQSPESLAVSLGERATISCKLSQVTHSEHKIKNSIAWYQQKAGQPPKLLIYEMVTREKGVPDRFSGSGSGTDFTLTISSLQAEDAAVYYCQQYDRLPLSFGGGTKVEIK | 1.00 1.08 0.85 0.83 0.75 0.74 | 1 of 18 (2.39)
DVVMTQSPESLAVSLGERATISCTLSDLTYMESRNVNSVAWYQQKAGQPPKLLIYDLVKRESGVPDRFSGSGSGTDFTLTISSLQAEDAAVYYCQQYHRLPLSFGGGTKVEIK | 0.66 0.58 0.15 0.09 0.13 0.40 | 1 of 18 (2.46)
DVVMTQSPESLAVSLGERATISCKLGQSQAMTSRNKNNVAWYQQKAGQPPKLLIYDLNERERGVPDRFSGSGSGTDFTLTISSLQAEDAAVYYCQQYHRLPLSFGGGTKVEIK | -0.48 -0.86 -0.64 -0.67 -0.72 -0.56 | 0 of 18
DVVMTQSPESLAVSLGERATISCKLSSFHGVESINKSNVAWYQQKAGQPPKLLIYEMVTRESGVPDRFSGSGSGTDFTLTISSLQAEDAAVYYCQQYDRLPLSFGGGTKVEIK | 1.35 1.53 1.31 0.24 2.21 0.81 | 0 of 18

The parent sequence was in this pool as ten entries: three were never detected, three once, and four in most replicates, with averages from 0.34 to 2.37. As a blank, each scFv also met three strains without target: over all light chain designs, 4% of these pairings were detected, typically at 2.64 and seldom below 1.59. For each scFv, signals with the empty controls are counted beside the result, with their mean in brackets. The range of this assay differs from that of the first round, and the authors advise against merging the two.

Values reported by Li et al. 2023, doi:10.1038/s41467-023-39022-2 (FLAb copy).